Assay [1] has as its target T1, Ephrin type-B receptor 4 (Homo sapiens, UniProt P54760).
T1 sequence (P54760 whole entry): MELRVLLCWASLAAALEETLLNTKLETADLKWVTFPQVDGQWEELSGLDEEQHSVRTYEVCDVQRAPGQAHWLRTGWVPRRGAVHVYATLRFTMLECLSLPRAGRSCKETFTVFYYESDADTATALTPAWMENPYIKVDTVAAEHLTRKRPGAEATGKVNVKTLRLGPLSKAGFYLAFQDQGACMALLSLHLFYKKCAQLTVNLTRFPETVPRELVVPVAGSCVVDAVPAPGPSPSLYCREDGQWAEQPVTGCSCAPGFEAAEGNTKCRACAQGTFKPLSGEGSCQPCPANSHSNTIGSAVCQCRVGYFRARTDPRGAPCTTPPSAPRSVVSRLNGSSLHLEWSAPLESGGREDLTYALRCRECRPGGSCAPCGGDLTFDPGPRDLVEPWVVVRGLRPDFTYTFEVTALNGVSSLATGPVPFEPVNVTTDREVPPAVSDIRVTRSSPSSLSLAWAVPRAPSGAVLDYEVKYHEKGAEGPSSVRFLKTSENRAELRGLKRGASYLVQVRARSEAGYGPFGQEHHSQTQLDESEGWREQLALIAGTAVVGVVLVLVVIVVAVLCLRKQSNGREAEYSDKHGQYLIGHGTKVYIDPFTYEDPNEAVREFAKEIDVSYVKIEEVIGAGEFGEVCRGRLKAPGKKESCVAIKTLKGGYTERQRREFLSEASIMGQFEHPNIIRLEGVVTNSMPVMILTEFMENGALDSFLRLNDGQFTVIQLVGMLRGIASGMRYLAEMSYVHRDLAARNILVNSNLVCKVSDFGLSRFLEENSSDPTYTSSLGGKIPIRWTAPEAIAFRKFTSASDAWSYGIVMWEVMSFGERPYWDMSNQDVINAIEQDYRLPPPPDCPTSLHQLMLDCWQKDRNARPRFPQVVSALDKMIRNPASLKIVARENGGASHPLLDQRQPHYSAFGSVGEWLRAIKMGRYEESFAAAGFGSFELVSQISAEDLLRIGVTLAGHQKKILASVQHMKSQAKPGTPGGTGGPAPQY
Nature of the assay: Inhibition of Myc-His-tagged EphB4 expressed in CHOK1 cells assessed as phosphorylation by ELISA. Type of assay: cell-based, CHO-K1. Background: ELISA stands for enzyme-linked immunosorbent assay.

Assay [2] concerns the target T1, Ephrin type-B receptor 4. Briefly: Inhibition of EphB4.

Each structure is given as a SMILES string.

In ChEMBL document CHEMBL1143442, “Inhibitors of the tyrosine kinase EphB4. Part 2: structure-based discovery and optimisation of 3,5-bis substituted anilinopyrimidines” (Bioorg Med Chem Lett, 2008) one finds IC50 data, which are given here for 2 molecules.

Take `CS(=O)(=O)Nc1cccc(Nc2nccc(Nc3c(Cl)ccc4c3OCO4)n2)c1`: the results for the half-inhibitory concentration (IC50) in assay [1] and in assay [2] were 0.741 µM and 0.794 µM, respectively.

As for `NC(=O)c1cccc(Nc2nccc(Nc3c(Cl)ccc4c3OCO4)n2)c1`, in assay [2], the half-inhibitory concentration (IC50) (as a rule, the concentration at which inhibition is half-maximal) amounted to 0.22 µM.
